Assay results reported in patent publication US3937809A, “Addition compound of a nucleotide and an amino acid and the use thereof in protection against actinic radiation” (priority 1974, dated 1976).

Tests used:
Format in all cases: physicochemical
pH of solution (Table I) = settings: c=0.005
Source text: The following Table 1 lists additional compounds of the invention along with their physical properties.
Molecular Brutto N(%) pH UV- Extinction coefficients

[1] = UV absorption in % at 300, 280 and 240 nm (Table 2)
Source text: The following Table illustrates the ultraviolet absorption characteristics at wave lengths of 300 nm, 280 nm, and 240 nm for the compounds of the invention, as well as other known compounds which have been used in the past as sun protective agents.

[2] = UV spectrum and extinction coefficients in water (Table I); settings: for mol.Ext.coeff. ε / Extinction coefficients E250/E260 / Extinction coefficients E280/E260 / Extinction coefficients E290/E260: c=0.005, d-l; for Extinction coefficients E250/E260 / Extinction coefficients E280/E260 / Extinction coefficients E290/E260: ratio
[3] = Solubility in water at 20°C (Table 3)

| Substance | pH (pH of solution (Table I)) | UV Absorption in %, 240 nm [1] [%] | UV Absorption in %, 280 nm [1] [%] | UV Absorption in %, 300 nm [1] [%] | UV-spectrum λmax [2] [mμ] | mol.Ext.coeff. ε [2] | Extinction coefficients E250/E260 [2] | Extinction coefficients E280/E260 [2] | Extinction coefficients E290/E260 [2] | Solubility in Water at 20°C (%) [3] [%] |
| --- | --- | --- | --- | --- | --- | --- | --- | --- | --- | --- |
| Adenosine-5'-mono phosphoric acid-Na-(p-aminobenzoate) [No. 19] | 6.8 | 77 | 90 | 65 | 210 | 210500±4% | 0.73 | 0.50 | 0.22 | 4.00 |
| Adenosine-5'-mono-phosphoric acid-(Na-p-aminobenzoate)2 [No. 2] | 6.5 | 73 | 100 | 99 | 265 | 253000±4% | 0.89 | 0.70 | 0.4 | 1.00 |
| Adenosine-5'-mono-phosphoric acid-(Na-sulfanilate)2 [No. 9] | 6.50 | – | – | – | 208 | 265500±4% | 1.06 | 0.21 | 0.11 | – |
| Adenosine-5'-mono-phosphoric acid-(p-aminobenzoic acid)2 [No. 13] | 6.2 | – | – | – | 265 | 236000±4 | 0.82 | 0.89 | 0.57 | – |
| Adenosune-5'-mono phosphoric acid-(o-Na-aminophenol-sulfonate)2 [No. 7] | 6.35 | – | – | – | 274 | 332000±4% | 0.82 | 0.45 | 0.46 | – |
| Cytidine-5'-Na-mono-phosphoric acid-(Na-p-amino-benzoic acid) [No. 14] | 7.35 | 78 | 97 | 73 | 206 | 161000±4% | 0.66 | 1.00 | 0.51 | 1.00 |
| Cytidine-5'-mono-phosphoric acid-(Na-o-aminophenol sulfonate)2 [No. 8] | 6.60 | – | – | – | 215 | 298000±4% | 1.41 | 1.07 | 0.69 | – |
| Cytidine-5'-mono-phosphoric acid-(Na-tryptophane)2 [No. 12] | 7.0 | – | – | – | 223 | 295500±4% | 0.71 | 1.11 | 0.42 | – |
| Cytidine-5'-mono-phosphoric acid-(Na-tyrosine)2 [No. 10] | 6.65 | – | – | – | 224 | 189000±4% | 0.75 | 1.15 | 0.40 | – |
| Cytidine-5'-mono-phosphoric acid-(p-aminobenzoate)2 [No. 20] | 5.9 | 78 | 100 | 98 | 270 | 255500±4% | – | – | 0.35 | > 10.00 |
| Guanosine-5'-mono-phosphoric acid (1-amino-2-hydroxy-naphthlene sulfate)2 [No. 17] | 6.85 | – | – | – | 215 | 346000±4% | 1.37 | 0.53 | 0.41 | – |
| Guanosine-5'-mono-phosphoric acid-(5-aminonaphthalene-1-sulfate)2 [No. 16] | 6.85 | – | – | – | 210 | 333000±4% | 1.86 | 0.47 | 0.31 | – |
| Guanosine-5'-mono-phosphoric acid-(5-aminosulfosal-icylate)2 [No. 15] | 7.05 | – | – | – | 215 | 358000±4% | 1.3 | 0.44 | 0.14 | – |
| Uridine-5'-mono-phosphoric acid-(Na-histidine)2 [No. 4] | 7.0 | – | – | – | 210 | 156000±4% | 0.75 | 0.42 | 0.09 | – |
| Uridine-5'-mono-phosphoric acid-(Na-tyrosine)2 [No. 11] | 7.05 | – | – | – | 224 | 164500±4% | 0.64 | 0.62 | 0 | – |
| Uridine-5'-mono-phosphoric acid-(p-amino benzoate)2 [No. 18] | 6.65 | 79 | 99 | 76 | 260 | 231000±4% | 0.82 | 0.69 | 0.33 | 5.00 |
| Uridine-5'-mono-phosphoric acid-(tryptophane)2 [No. 1] | 6.5 | – | – | – | 233 | 278000±4% | 0.77 | 0.69 | 1.51 | – |
| Uridine-5-Na-mono-phosphoric acid-(Na-p-aminobenzoate) [No. 3] | 6.95 | 77 | 95 | 52 | 206 | 173500±4% | 0.79 | 0.71 | 0.32 | 9.20 |
| Uridine-5-mono-phosphoric acid-(Na-tryptophane)2 [No. 6] | 7.25 | – | – | – | 222 | 329200±4% | 0.71 | 0.76 | 0.30 | – |
| o-Aminophenol sulfate | – | 98 | 70 | 72 | – | – | – | – | – | – |
